This is a selection; strong and weak results do not stand in their true shares. The source made the active and inactive calls. Rule as the data show it: active = inhibition above about 50%; inactive = the rest.

The chains behind the UniProt entries cited, without tags or fusion partners. Residues count along the entry.
UniProt P26358, 504-1616 limits assumed: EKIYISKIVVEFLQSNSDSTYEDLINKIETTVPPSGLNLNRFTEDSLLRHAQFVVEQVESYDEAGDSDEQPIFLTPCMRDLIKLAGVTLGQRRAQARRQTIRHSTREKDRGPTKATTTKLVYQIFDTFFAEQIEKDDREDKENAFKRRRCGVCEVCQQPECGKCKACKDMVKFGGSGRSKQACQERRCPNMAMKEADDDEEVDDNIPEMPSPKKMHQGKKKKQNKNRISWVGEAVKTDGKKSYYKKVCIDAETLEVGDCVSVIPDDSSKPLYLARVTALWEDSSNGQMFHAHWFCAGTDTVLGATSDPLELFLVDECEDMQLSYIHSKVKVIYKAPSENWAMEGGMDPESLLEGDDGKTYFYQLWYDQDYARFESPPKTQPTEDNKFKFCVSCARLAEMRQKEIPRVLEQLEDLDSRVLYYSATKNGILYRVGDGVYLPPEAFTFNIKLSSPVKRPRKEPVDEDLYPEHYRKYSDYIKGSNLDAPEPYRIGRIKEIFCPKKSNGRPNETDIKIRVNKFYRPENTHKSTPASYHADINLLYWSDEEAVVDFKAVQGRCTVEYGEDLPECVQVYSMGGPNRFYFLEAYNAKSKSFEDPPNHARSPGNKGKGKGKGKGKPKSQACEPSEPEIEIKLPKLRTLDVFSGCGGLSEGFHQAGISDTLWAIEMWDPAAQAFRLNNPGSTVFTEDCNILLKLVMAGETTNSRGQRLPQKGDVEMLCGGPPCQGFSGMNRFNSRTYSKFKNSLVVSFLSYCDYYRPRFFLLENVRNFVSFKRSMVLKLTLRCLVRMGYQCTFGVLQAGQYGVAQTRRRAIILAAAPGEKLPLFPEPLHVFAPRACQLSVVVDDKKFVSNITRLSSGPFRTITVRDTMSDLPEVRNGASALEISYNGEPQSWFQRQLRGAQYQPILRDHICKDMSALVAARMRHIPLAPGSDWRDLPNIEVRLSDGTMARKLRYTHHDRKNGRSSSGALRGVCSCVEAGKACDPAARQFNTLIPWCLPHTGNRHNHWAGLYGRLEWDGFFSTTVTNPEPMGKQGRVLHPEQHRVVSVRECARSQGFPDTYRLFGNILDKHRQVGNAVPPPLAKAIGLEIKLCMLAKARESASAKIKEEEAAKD

This assay has as its target DNA (cytosine-5)-methyltransferase 1 (Homo sapiens) (UniProt P26358). Description: human DNMT1 methyltransferase inhibitors, primary screen, biochemical, molecular beacon, fluorescence, HinP1I cleavage, uHTS (AID 588458). The conditions noted are these: at 10 µM, active compounds read high.
With `CCOC(=O)N1CCC(Nc2ccc(OC)cc2)CC1`, the inhibition (reported as % activation of signal) was inactive: -1.68%.
For the compound `CCCCn1nnnc1C(c1ccc(OC)cc1)N1CCC(n2c(=O)[nH]c3ccccc32)CC1` (stereo unspecified), the inhibition (reported as % activation of signal) is inactive: -7.87%.
As for `O=C(OC1CN2CCC1CC2)C1c2ccccc2Oc2ccccc21` (stereo unspecified), the inhibition (reported as % activation of signal) was inactive: -2.31%.
As to `O=c1[nH]c2ccccc2n1C1CCN(C(c2cc3ccccc3o2)c2nnnn2C2CCCCC2)CC1` (stereo unspecified), the inhibition (reported as % activation of signal) is inactive: -22.3%.
Turning to `O=C(NCC1(N2CCCCC2)CCCCC1)c1ccc(Cl)s1`, the inhibition (reported as % activation of signal) is inactive: 0.33%.
In the case of `N#CC1(Nc2ccccc2)CCN(Cc2ccccc2)CC1`, the inhibition (reported as % activation of signal) was inactive: -1.2%.
As for `COc1ccc(Cl)cc1C(=O)NCC1(N2CCOCC2)CCCCC1`, the inhibition (reported as % activation of signal) was inactive: -0.99%.
Regarding `O=C(NCC1(N2CCOCC2)CCCCC1)c1cc2ccccc2o1`, the inhibition (reported as % activation of signal) was inactive: -8.69%.
On to `O=c1[nH]c2ccccc2n1C1CCN(C(c2ccccc2OC(F)(F)F)c2nnnn2C2CCCCC2)CC1` (stereo unspecified), for which the inhibition (reported as % activation of signal) was inactive: -4.85%.
Regarding `O=C(NCC1(N2CCCCC2)CCCCC1)c1ccc(Cl)nc1`, the inhibition (reported as % activation of signal) was inactive: -1.05%.
As to `Cc1cc(C)cc(N(C(=O)c2ccccc2)C2CCN(C(=O)OC(C)(C)C)CC2)c1`, the inhibition (reported as % activation of signal) is inactive: 1.21%.
Turning to `CSc1ccccc1C(=O)NCC1(N2CCCCC2)CCCCC1`, the inhibition (reported as % activation of signal) was inactive: 1.05%.
With `Cc1cccc(NC2(C#N)CCN(Cc3ccccc3)CC2)c1`, the inhibition (reported as % activation of signal) was inactive: 5.09%.
Consider `O=C(NCC1(N2CCCCC2)CCCCC1)c1ccc(=O)[nH]c1`, for which the inhibition (reported as % activation of signal) was inactive: 1.99%.
In the case of `CCCCn1nnnc1C(c1cccs1)N1CCC(n2c(=O)[nH]c3ccccc32)CC1` (stereo unspecified), the inhibition (reported as % activation of signal) was inactive: 0.21%.
Next, `O=C(NCC1(N2CCCCC2)CCCCC1)c1cccs1`: inactive: 3.1%; `CCCCn1nnnc1C(CC)N1CCC(n2c(=O)[nH]c3ccccc32)CC1` (stereo unspecified): inactive: 3.95%; `COc1ccc(C(=O)NCC2(N3CCCCC3)CCCCC2)cc1`: inactive: -0.01%.
With `CCC(c1nnnn1C1CCCC1)N1CCC(n2c(=O)[nH]c3ccccc32)CC1` (stereo unspecified), the inhibition (reported as % activation of signal) was inactive: 1.74%.
Turning to `CC(C)(C)OC(=O)N1CCC(N(C(=O)c2ccccc2)c2ccc(F)cc2)CC1`, the inhibition (reported as % activation of signal) was inactive: 4.19%.
To `COc1ccc(C(=O)NCC2(N3CCCCC3)CCCCC2)c(OC)c1OC` belongs inactive: 2.82%.
For `O=c1[nH]c2ccccc2n1C1CCN(C(c2cccc3ccccc23)c2nnnn2C2CCCC2)CC1` (stereo unspecified), the inhibition (reported as % activation of signal) is inactive: -23.6%.
To `COc1cc(C(=O)NCC2(N(C)C)CCCCC2)ccc1OC(F)F` belongs inactive: -2.69%; to `CCOC(=O)N1CCC(Nc2cccc(C)c2)CC1`, inactive: -1.39%.
For the compound `O=c1[nH]c2ccccc2n1C1CCN(C(c2ccccc2)c2nnnn2C2CCCCC2)CC1` (stereo unspecified), the inhibition (reported as % activation of signal) is inactive: -9.06%.
To `O=C(NCC1(N2CCCCC2)CCCCC1)c1ccc(F)cc1` belongs inactive: 0.51%.

These data come from PubChem BioAssay AID588458 (Sanford-Burnham Center for Chemical Genomics, 2011).
